The target of one assay is T1, MMP-2 (Homo sapiens, UniProt P08253).
T1 construct: purchased Oncogene Research Products (Calbiochem) PF023
T1 sequence (P08253 110-660): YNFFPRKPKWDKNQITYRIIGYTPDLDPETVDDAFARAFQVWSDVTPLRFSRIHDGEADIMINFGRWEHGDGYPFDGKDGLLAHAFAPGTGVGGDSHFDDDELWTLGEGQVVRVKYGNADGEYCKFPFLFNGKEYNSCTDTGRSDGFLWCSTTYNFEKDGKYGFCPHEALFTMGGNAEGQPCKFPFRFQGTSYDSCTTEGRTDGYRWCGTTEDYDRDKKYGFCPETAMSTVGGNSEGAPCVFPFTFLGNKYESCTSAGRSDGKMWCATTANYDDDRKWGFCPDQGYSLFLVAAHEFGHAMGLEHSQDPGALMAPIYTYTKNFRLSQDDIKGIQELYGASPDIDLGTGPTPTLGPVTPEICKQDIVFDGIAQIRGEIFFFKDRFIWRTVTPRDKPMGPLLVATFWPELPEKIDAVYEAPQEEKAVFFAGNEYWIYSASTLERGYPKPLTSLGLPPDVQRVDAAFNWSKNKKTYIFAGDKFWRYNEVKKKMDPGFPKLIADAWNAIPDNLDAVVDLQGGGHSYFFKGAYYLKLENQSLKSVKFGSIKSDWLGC
The assay is described as follows: In-vitro fluorescence assay of MMP-2 activity. The settings on record: recombinant human MMP-2. In kind it is biochemical.

A further assay deals with T2, MMP-13 (Homo sapiens, UniProt P45452).
T2 construct: made in house
The assay is described as follows: In-vitro fluorescence assay of MMP-13 activity. In kind it is biochemical. The note with it: recombinant human catalytic domain of MMP-13; read-out: MMP-13 IC50.

As a reminder, the IC50 is the concentration that gives 50% inhibition.

As to `CC(C)[C@H](NS(=O)(=O)c1ccc(-c2ccc(NC(=O)c3cc4ccccc4[nH]3)cc2)cc1)C(=O)O` [Example 3], the IC50 at MMP-2 was 19 nM.

For `CC(C)[C@H](NS(=O)(=O)c1ccc(-c2ccc(NC(=O)c3cc4ccccc4o3)cc2)cc1)C(=O)O` [Example 2, L-2-{4′-[(Benzofuran-2-carbonyl)-amino]-biphenyl-4-sulfonylamino}-3-methyl-butyric acid], the IC50 on MMP-13 is 1.6 nM.

Source of the values: patent publication US7420001B2 (Wyeth, priority 2003, dated 2008).
